Measurements reported in patent US9249125B2, “Pyrazole derivatives as p38 MAP inhibitors” (RESPIVERT LIMITED, priority 2012, dated 2016).

By UniProt entry, the sequences of proteins in these tests, tags left out.
UniProt Q16539, whole entry: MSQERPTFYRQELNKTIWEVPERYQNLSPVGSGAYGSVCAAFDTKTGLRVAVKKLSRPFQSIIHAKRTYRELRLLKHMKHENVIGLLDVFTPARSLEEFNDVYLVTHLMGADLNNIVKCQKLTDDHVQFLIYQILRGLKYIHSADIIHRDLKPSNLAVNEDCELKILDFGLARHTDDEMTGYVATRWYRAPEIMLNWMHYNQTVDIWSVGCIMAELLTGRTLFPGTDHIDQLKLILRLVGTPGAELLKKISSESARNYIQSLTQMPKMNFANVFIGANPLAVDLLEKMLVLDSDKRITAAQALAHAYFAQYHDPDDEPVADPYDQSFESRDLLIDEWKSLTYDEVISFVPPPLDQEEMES
UniProt P12931, whole entry, looked up: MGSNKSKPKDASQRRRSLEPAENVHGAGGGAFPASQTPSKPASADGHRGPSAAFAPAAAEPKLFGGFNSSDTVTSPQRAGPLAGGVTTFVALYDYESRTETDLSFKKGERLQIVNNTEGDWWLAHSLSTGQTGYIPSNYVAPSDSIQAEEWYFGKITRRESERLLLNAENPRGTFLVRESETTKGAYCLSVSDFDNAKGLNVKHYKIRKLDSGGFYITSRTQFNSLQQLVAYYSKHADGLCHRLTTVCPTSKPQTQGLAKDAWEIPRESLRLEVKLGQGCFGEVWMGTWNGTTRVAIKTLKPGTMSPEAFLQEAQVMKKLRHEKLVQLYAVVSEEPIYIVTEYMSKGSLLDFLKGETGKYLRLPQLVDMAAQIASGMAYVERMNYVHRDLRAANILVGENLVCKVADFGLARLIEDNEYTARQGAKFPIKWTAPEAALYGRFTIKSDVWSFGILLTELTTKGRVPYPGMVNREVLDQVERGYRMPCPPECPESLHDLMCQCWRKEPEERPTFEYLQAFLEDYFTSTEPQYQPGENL

Assays:
p38 MAPKα = p38 MAPKα (Homo sapiens (Human), UniProt Q16539); assay: p38 MAPKα enzyme inhibition (FRET, Z-LYTE); format: biochemical
cSrc = cSrc (Homo sapiens (Human), UniProt P12931); assay: c-Src enzyme inhibition (FRET, Z-LYTE); format: biochemical
Syk = Syk (Homo sapiens (Human), UniProt P43405); assay: Syk enzyme inhibition (FRET, Z-LYTE); format: biochemical
Experimental: The enzyme inhibitory activities of compounds disclosed herein are determined by FRET using synthetic peptides labelled with both donor and acceptor fluorophores (Z-LYTE, Invitrogen Ltd., Paisley, UK).
The inhibitory activities of compounds of the invention against c-Src and Syk enzymes (Invitrogen), are evaluated in a similar fashion to that described hereinabove. The relevant enzyme (3000 ng/mL or 2000 ng/mL respectively, 2.5 μL) is incubated with the test compound (either 4 μg/mL, 0.4 μg/mL, 0.04 μg/mL, or 0.004 μg/mL, 2.5 μL each) for 2 hr at RT. The FRET peptides (8 μM, 2.5 μL), and appropriate ATP solutions (2.5 μL, 800 μM for c-Src, and 60 μM ATP for Syk) are then added to the enzymes/compound mixtures and incubated for 1 hr. Development reagent (protease, 5 μL) is added for 1 hr prior to detection in a fluorescence microplate reader (Varioskan® Flash, ThermoFisher Scientific).
In all cases, the site-specific protease cleaves non-phosphorylated peptide only and eliminates the FRET signal. Phosphorylation levels of each reaction are calculated using the ratio of coumarin emission (donor) over fluorescein emission (acceptor), for which low ratios indicate high phosphorylation and high ratios indicate low phosphorylation levels.

[1] = tested on: Poly I:C-induced ICAM-1 expression in BEAS2B cells; assay: Poly I:C-induced ICAM-1 expression in BEAS2B cells; format: cell-based; details: Homo sapiens, BEAS-2B, read-out: Poly IC induced ICAM1 in BEAS2B IC50
Experimental: Poly I:C is used in these studies as a simple, RNA virus mimic. Poly I:C-Oligofectamine mixture (1 μg/mL Poly I:C, ±2% Oligofectamine, 25 uL) (Invivogen Ltd., San Diego, Calif., and Invitrogen, Carlsbad, Calif., respectively) is transfected into BEAS2B cells (human bronchial epithelial cells, ATCC). Cells are pre-incubated with final concentrations of test compounds for 2 hr and the level of ICAM1 expression on the cell surface is determined by cell-based ELISA. […]
The cells are washed with PBS-Tween (3×200 μL) and incubated with the secondary antibody (100 μL) (HRP-conjugated anti-rabbit IgG, Dako Ltd., Glostrup, Denmark). […] The ICAM-1 signal is detected by reading and reading the absorbance at 450 nm against a reference wavelength of 655 nm using a spectrophotometer. The cells are then washed with PBS-Tween (3×200 μL) and total cell numbers in each well are determined by reading absorbance at 595 nm after Crystal Violet staining (50 μL of a 2% solution in PBS) and elution by 1% SDS solution (100 μL) in distilled water. The measured OD 450-655 readings are corrected for cell number by dividing with the OD595 reading in each well. The inhibition of ICAM-1 expression is calculated at each concentration of test compound by comparison with vehicle control.

| SMILES | IC50 (p38 MAPKα) [nM] | IC50 (cSrc) [nM] | IC50 (Syk) [nM] | IC50 [1] [nM] |
| --- | --- | --- | --- | --- |
| Cc1ccc(-n2nc(C(C)(C)C)cc2NC(=O)Nc2ccc(Oc3ccnc(Nc4cccc5[nH]ncc45)n3)c3ccccc23)cc1 [Example 21] | 21 | 21 |  |  |
| Cc1ccc(-n2nc(C(C)(C)C)cc2NC(=O)Nc2ccc(Oc3ccnc(Nc4cnc5[nH]ccc5c4)n3)c3ccccc23)cc1 [Example 32, 1-(4-((2-((1H-pyrrolo[2,3-b]pyridin-5-yl)amino)pyrimidin-4-yl)oxy)naphthalen-1-yl)-3-(3-(tert-butyl)-1-(p-tolyl)-1H-pyrazol-5-yl)urea] |  | 14 | 14 | 14.3 |
